Entries after “also recorded” stand apart in the source; their conditions may differ. Where two headings read alike, the source gives them in different places.
Columns and labels:
[1] = with vs without cyclosporine; cited from earlier work
[2] = with vs without cimetidine
[3] = with vs without propafenone
[4] = not given; remark: listed apart in the source
[5] = not given; remark: listed apart in the source
[6] = with vs without clarithromycin; cited from earlier work
[7] = with vs without ketoconazole; cited from earlier work
[8] = with vs without ritonavir; cited from earlier work
[9] = with vs without verapamil ER; cited from earlier work
[10] = with vs without diltiazem ER; cited from earlier work
[11] = with vs without azithromycin; cited from earlier work
[12] = cited from earlier work
[13] = Colchicine pharmacokinetics coadministered with fluconazole; details: with vs without fluconazole
[14] = Colchicine pharmacokinetics coadministered with voriconazole; details: with vs without voriconazole
[15] = Incidence of adverse effects for colchicine coadministered with voriconazole

COc1cc2c(c(OC)c1OC)-c1ccc(OC)c(=O)cc1[C@@H](NC(C)=O)CC2 [Colchicine, (S)N-(5,6,7,9-tetrahydro-1,2,3,10-tetramethoxy-9-oxobenzo[alpha]heptalen-7-yl)acetamide]
AUCT RATIO Treatment-2/Treatment-1 [1]: 317.48% | CLTOT/F RATIO Treatment-2/Treatment-1 [1]: 27.82% | Cmax RATIO Treatment-2/Treatment-1 [1]: 324.17% | Kel RATIO Treatment-2/Treatment-1 [1]: 26.07% | AUCT RATIO of geometric LSmeans Treatment-2/Treatment-1 [2]: 86.80% | AUC∞ RATIO of geometric LSmeans Treatment-2/Treatment-1 [2]: 85.50% | Cmax RATIO of geometric LSmeans Treatment-2/Treatment-1 [2]: 67.45% | AUCT RATIO of geometric LSmeans Treatment-2/Treatment-1 [3]: 101.04% | AUC∞ RATIO of geometric LSmeans Treatment-2/Treatment-1 [3]: 99.90% | Cmax RATIO of geometric LSmeans Treatment-2/Treatment-1 [3]: 106.28% | Safety of colchicine when coadministered (Example 4 (fluconazole study), text prints voriconazole): comparable to observations in the absence of any coadministered drug | Number of subjects withdrawn for safety reasons (fluconazole study): None | Relative severity of adverse events (fluconazole study): Mild to moderate;; also recorded: None severe | Safety and tolerability (with and without co-administration of fluconazole): generally safe and well tolerated | Number of subjects withdrawn for safety reasons ([4]; cimetidine study): None | Relative severity of adverse events ([4]; cimetidine study): Mild to moderate;; also recorded: None severe | Safety and tolerability ([4]; with and without co-administration of cimetidine): generally safe and well tolerated | Number of subjects withdrawn for safety reasons ([5]; propafenone study): None | Relative severity of adverse events ([5]; propafenone study): Mild to moderate;; also recorded: None severe | Safety and tolerability ([5]; with and without co-administration of propafenone): generally safe and well tolerated | AUCT RATIO Treatment-2/Treatment-1 [6]: 339.21% | Cmax RATIO Treatment-2/Treatment-1 [6]: 297.49% | Kel RATIO Treatment-2/Treatment-1 [6]: 22.35% | T1/2el RATIO Treatment-2/Treatment-1 [6]: 340.97% | AUCT RATIO Treatment-2/Treatment-1 [7]: 286.75% | CLTOT/F RATIO Treatment-2/Treatment-1 [7]: 30.01% | Cmax RATIO Treatment-2/Treatment-1 [7]: 189.52% | Kel RATIO Treatment-2/Treatment-1 [7]: 22.29% | T1/2el RATIO Treatment-2/Treatment-1 [7]: 415.24% | AUCT RATIO Treatment-2/Treatment-1 [8]: 345.32% | CLTOT/F RATIO Treatment-2/Treatment-1 [8]: 27.37% | Cmax RATIO Treatment-2/Treatment-1 [8]: 267.08% | T1/2el RATIO Treatment-2/Treatment-1 [8]: 338.42% | AUCT RATIO Treatment-2/Treatment-1 [9]: 199.29% | CLTOT/F RATIO Treatment-2/Treatment-1 [9]: 47.81% | Cmax RATIO Treatment-2/Treatment-1 [9]: 129.72% | Kel RATIO Treatment-2/Treatment-1 [9]: 34.05% | T1/2el RATIO Treatment-2/Treatment-1 [9]: 274.99% | AUCT RATIO Treatment-2/Treatment-1 [10]: 176.67% | CLTOT/F RATIO Treatment-2/Treatment-1 [10]: 58.94% | Cmax RATIO Treatment-2/Treatment-1 [10]: 129.03% | Kel RATIO Treatment-2/Treatment-1 [10]: 52.76% | T1/2el RATIO Treatment-2/Treatment-1 [10]: 226.66% | AUCT RATIO Treatment-2/Treatment-1 [11]: 143.3% | CLTOT/F RATIO Treatment-2/Treatment-1 [11]: 69.69% | Cmax RATIO Treatment-2/Treatment-1 [11]: 111.15% | Kel RATIO Treatment-2/Treatment-1 [11]: 97.02% | T1/2el RATIO Treatment-2/Treatment-1 [11]: 110.44% | Number of subjects withdrawn for safety reasons ([12]; colchicine coadministered with azithromycin, vomiting): 1 | Number of subjects withdrawn for safety reasons ([12]; colchicine coadministered with clarithromycin): None | Number of subjects withdrawn for safety reasons ([12]; colchicine coadministered with cyclosporine): None | Number of subjects withdrawn for safety reasons ([12]; colchicine coadministered with diltiazem ER, vomiting): 1 | Number of subjects withdrawn for safety reasons ([12]; colchicine coadministered with ketoconazole): None | Number of subjects withdrawn for safety reasons ([12]; colchicine coadministered with ritonavir): None | Number of subjects withdrawn for safety reasons ([12]; colchicine coadministered with verapamil ER): None | AUCT RATIO of geometric LSmeans Treatment-2/Treatment-1 [13]: 140.82% | AUC∞ RATIO of geometric LSmeans Treatment-2/Treatment-1 [13]: 143.83% | Cmax RATIO of geometric LSmeans Treatment-2/Treatment-1 [13]: 112.95% | AUCT RATIO of geometric LSmeans Treatment-2/Treatment-1 [14]: 108.69% | AUC∞ RATIO of geometric LSmeans Treatment-2/Treatment-1 [14]: 110.77% | Cmax RATIO of geometric LSmeans Treatment-2/Treatment-1 [14]: 79.67% | Number of subjects withdrawn for safety reasons ([15]; voriconazole study): None | Relative severity of adverse events ([15]; voriconazole study): Mild to moderate;; also recorded: None severe | Safety and tolerability ([15]; with and without co-administration of voriconazole): generally safe and well tolerated

Source: patent publication US9555029B2, “Methods of colchicine administration” (HIKMA PHARMACEUTICALS, priority 2013, dated 2017)
